For one substance, FRET efficiency, FRET efficiency (ER-PM+ junctions) and FRET efficiency (energy transfer efficiency, EF) results are on record in article PMC7112945.

The target in experiment [1] is Kv7.1-cyan fluorescent protein (Kv7.1-CFP) (human) (UniProt P51787). Nature of the experiment: FRET or BRET.
The target is the same in experiment [2]. Nature of the experiment: FRET or BRET. This is another data set of the same source.

Read-outs that look alike come from different tables or passages of the source.

For “KCNE1-yellow fluorescent protein (KCNE1-YFP), P15382 1-129 (natural protein; other documents disagree on this pair)”, the FRET efficiency in experiment [1] was determined as 0.17. In experiment [2], this substance registered an FRET efficiency of 0.14; an FRET efficiency (ER-PM+ junctions) of 0.14; an FRET efficiency (energy transfer efficiency, EF) of 0.15%.
